Experimental data: publication PMC11124525, “Pharmacokinetic–Pharmacodynamic Correlation Analysis of Rhodiola crenulata in Rats with Myocardial Ischemia” (Pharmaceuticals, 2024)
“Also recorded” adds a separate entry of the source. Where two headings read alike, the source gives them in different places.

How the values were obtained:
[1] = PK of five RC components in sham operation administration (SDG, normal) rats after oral RC extract, HPLC-QQQ-MS/MS, DAS; type: in vivo; conditions: oral RC extract 2 g/kg, plasma, mean ± SD, n = 6
Procedure: (§1) The drug concentration in plasma was calculated using the standard curve, and the mean blood concentration was plotted against the time to obtain the mean blood concentration–time curve (Figure 4).
(§2) The rat model of MI was made with Pit. The rats were divided into a sham operation group (SG), sham operation administration group (SDG), model group (MG), and model administration group (MDG) (n = 6 for each group). The MI model was prepared via an intraperitoneal injection (a single time) of Pit in the MG and MDG, with a dosage of 20 U/kg and a volume of 10 mL/kg. At the same time, the rats in the SG and SDG groups were given the same volume of saline in the same way.
(§3) RC extract (2 g/kg, equivalent to human clinical equivalent dose) was given to rats via oral administration in SDG and MDG, and the same volume of normal saline was orally administered to the SG and MG. Rats were fasted for 12 h before the experiment. Blood was collected from the fundus venous plexus at 0, 5, 10, 15, 30, 45 min, 1, 2, 4, 6, 8, 12, and 24 h after in gavage, placed in a centrifuge tube impregnated with heparin sodium, centrifuged at 3500 rpm for 15 min, and then the plasma was collected and divided into two parts. One part was used for biochemical index determination and the other part was used to determine the content of pharmaceutical ingredients in vivo. After the experiment, the rats were sacrificed, and the hearts were placed in paraformaldehyde for histopathological analysis.
(§4) The plasma sample of 100 μL was accurately absorbed, 50 μL internal standard solution (Nimodipine, 500 ng/mL) was added, then 300 μL acetonitrile precipitated protein was added, vortex for 10 min, placed under ultrasound for 3 min, centrifuged at 13,000 rpm for 10 min, and then the supernatant was transferred to another centrifuge tube. It was then concentrated until dry with a rotary evaporator. The residue was redissolved with 100 μL 50% acetonitrile, swirled for 1 min, placed under ultrasonic for 3 min, centrifuged at 13,000 rpm for 10 min, and the supernatant was taken for analysis.
(§5) A validated HPLC-QQQ-MS/MS method was used for the determination of drug-derived components in plasma samples at different time points. The accompanying standard curve was substituted to calculate the content of the compounds to be measured, and then the PK parameters were calculated using DAS software (version 3.2.8), and the blood concentration–time curve was plotted using GraphPad Prism (version 8.0.2). PK behavior was compared between the sham operation and model group, and PK models were established, respectively.

[2] = PK of five RC components in pituitrin-induced myocardial ischemia (MDG) rats after oral RC extract, HPLC-QQQ-MS/MS, DAS; type: in vivo, SD rats
Procedure: as §1, §2, §3, §4, §5

[3] = Procedure: A series concentration mixed reference solution with different concentrations was added to 100 μL plasma, and was treated according to the method under Section 4.6 to obtain the matrix standard curve sample. Samples with concentrations of 400, 100, and 10 ng/mL, respectively, were taken as quality control (QC) samples of high, medium, and low concentrations (HQC, MQC, LQC). The method was validated, including linearity, inter-day/intra-day precision, repeatability, stability, extraction recovery, and matrix effect, according to FDA bioanalytical method validation guidelines.
[4] = MDG (myocardial ischemia) rats, oral RC extract 2 g/kg, plasma, mean ± SD, n = 6
[5] = MDG vs SDG rats, oral RC extract 2 g/kg

In the case of rhodiosin, the “AUC(0−t)” value [1] is reported as 1190.07 ± 56.37 µg·h/L, the “AUC(0−∞)” value [1] is reported as 1208.73 ± 44.35 µg·h/L and the CLz/F [1] is reported as 4.14 ± 0.15 L/h/kg. For the same molecule, the Cmax [1] was 259.08 ± 30.04 µg/L, the “MRT(0−)” value [1] was 4.28 ± 0.27 h and the “MRT(0−∞)” value [1] was 4.75 ± 1.08 h. For the same molecule, the Tmax [1] was 1.83 ± 0.41 h, the t1/2z [1] was 4.18 ± 2.26 h and the “AUC(0−t)” value [2, 4] was 1736.61 ± 257.41 µg·h/L. For the same molecule, the “AUC(0−∞)” value [2, 4] was 1754.66 ± 238.70 µg·h/L, the CLz/F [2, 4] was 2.89 ± 0.39 L/h/kg and the Cmax [2, 4] was 336.63 ± 22.81 µg/L. The “MRT(0−)” value [2, 4] was 3.94 ± 0.34 h, the “MRT(0−∞)” value [2, 4] was 4.3 ± 0.40 h and the Tmax [2, 4] was 2.5 ± 1.23 h. The Vz/F [2, 4] was 16.21 ± 14.31 L/kg, the t1/2z [2, 4] was 3.65 ± 2.87 h and the “Change of CLZ/F in MDG compared with SDG” value [2, 5] was “marked decreasing tendency; also recorded: decreased significantly”. For the same molecule, the “Change of Cmax in MDG compared with SDG” value [2, 5] was “increased significantly; also recorded: significantly increased”, the “Tmax (approximate)” value ([2]; according to the PK results, group not given, oral RC extract) was “about 2 h” and the “Stability RE (%)” value ([3]; rat plasma, 4 °C, 48 h, spiked 10 ng/mL, n = 6) was 103.8%. For the same molecule, the “Stability RE (%)” value ([3]; rat plasma, 4 °C, 48 h, spiked 50 ng/mL, n = 6) was 95.62%, the “Stability RE (%)” value ([3]; rat plasma, 4 °C, 48 h, spiked 400 ng/mL, n = 6) was 93.17% and the “Stability RE (%)” value ([3]; rat plasma, three freeze–thaw cycles, spiked 10 ng/mL, n = 6) was 88.83%. The “Stability RE (%)” value ([3]; rat plasma, three freeze–thaw cycles, spiked 50 ng/mL, n = 6) was 98.28%, the “Stability RE (%)” value ([3]; rat plasma, three freeze–thaw cycles, spiked 400 ng/mL, n = 6) was 93.72% and the “Stability RE (%)” value ([3]; rat plasma, −80 °C, 10 days, spiked 10 ng/mL, n = 6) was 92.37%. For the same molecule, the “Stability RE (%)” value ([3]; rat plasma, −80 °C, 10 days, spiked 50 ng/mL, n = 6) was 100.9%, the “Stability RE (%)” value ([3]; rat plasma, −80 °C, 10 days, spiked 400 ng/mL, n = 6) was 90.82% and the “Stability in plasma samples (in words)” value ([3]; simulated sample storage, handling and analysis (48 h at 4 °C and 10 days in 3 freeze–thaw cycles)) was “stable”.
In the case of OCCc1ccc(O)cc1 [Tyrosol, tyrosol], the “Stability RE (%)” value ([3]; rat, 48 h, 400 ng/mL) is reported as 93.15% and the “Stability RE (%)” value ([3]; rat, 10 days, 50 ng/mL) is reported as 93.68%.
